The chains behind the UniProt entries cited, without tags or fusion partners.
UniProt P21728, whole entry, looked up: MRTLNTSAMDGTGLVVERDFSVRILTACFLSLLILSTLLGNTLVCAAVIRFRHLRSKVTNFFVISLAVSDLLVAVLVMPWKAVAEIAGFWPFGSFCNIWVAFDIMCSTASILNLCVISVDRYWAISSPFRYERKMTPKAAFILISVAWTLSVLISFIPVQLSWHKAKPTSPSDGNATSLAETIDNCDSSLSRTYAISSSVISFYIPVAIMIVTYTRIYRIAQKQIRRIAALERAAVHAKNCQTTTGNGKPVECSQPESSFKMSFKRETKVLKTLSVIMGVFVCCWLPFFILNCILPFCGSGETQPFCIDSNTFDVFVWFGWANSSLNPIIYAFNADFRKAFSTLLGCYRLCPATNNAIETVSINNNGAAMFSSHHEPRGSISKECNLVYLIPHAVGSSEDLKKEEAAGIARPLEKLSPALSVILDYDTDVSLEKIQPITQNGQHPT
UniProt P28223, whole entry, looked up: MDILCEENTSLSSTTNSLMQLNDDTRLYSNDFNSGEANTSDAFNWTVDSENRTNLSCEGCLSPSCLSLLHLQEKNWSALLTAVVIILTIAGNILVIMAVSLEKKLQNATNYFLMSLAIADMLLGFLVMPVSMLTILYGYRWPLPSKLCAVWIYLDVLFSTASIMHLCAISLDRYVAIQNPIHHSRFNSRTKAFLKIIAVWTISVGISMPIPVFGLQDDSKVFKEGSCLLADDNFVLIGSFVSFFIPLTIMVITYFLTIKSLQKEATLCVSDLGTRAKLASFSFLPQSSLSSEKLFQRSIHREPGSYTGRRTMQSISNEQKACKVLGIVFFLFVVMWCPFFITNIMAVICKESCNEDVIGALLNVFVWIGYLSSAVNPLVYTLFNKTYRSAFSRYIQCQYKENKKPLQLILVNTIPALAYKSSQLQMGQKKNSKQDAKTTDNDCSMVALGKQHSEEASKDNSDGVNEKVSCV
UniProt P14416, whole entry, looked up: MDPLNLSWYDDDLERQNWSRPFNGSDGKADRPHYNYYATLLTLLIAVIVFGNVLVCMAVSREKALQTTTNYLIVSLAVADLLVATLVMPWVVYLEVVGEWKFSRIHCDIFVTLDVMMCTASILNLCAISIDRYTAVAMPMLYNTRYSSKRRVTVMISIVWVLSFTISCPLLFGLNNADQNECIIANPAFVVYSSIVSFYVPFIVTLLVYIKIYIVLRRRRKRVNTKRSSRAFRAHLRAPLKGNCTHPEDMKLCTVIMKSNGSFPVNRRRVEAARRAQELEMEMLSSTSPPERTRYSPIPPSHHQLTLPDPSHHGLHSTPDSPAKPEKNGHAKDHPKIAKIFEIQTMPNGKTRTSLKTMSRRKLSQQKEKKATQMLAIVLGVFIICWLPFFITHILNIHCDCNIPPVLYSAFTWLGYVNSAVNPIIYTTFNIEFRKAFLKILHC

In US20240415832A1 (priority 2021, published 2024):

Key:
Crl:CD rats = experiment: Reversal of fentanyl-induced respiratory depression in rats (head-out plethysmograph)
D1 = D1 (Homo sapiens, UniProt P21728); experiment: Receptor binding, D1; details: D1, @ 50 nM
5-HT2A = 5-HT2A (Homo sapiens, UniProt P28223); experiment: Receptor binding, 5-HT2A; details: @ 10 nM
D2 = D2 (Homo sapiens, UniProt P14416); experiment: Receptor binding, D2; details: D2, @ 100 nM
[1] = Group (3): 0.15 mg/kg fentanyl s.c., then 1.0 mg/kg Ex. 1 i.v.
[2] = Group (4): 0.15 mg/kg fentanyl s.c., then 3.0 mg/kg Ex. 1 i.v.
[3] = Group (5): 0.15 mg/kg fentanyl s.c., then 5.0 mg/kg Ex. 1 i.v.
[4] = Group (6): vehicle pre-treatment, then 5.0 mg/kg Ex. 1 i.v. (no fentanyl)

In the case of O=C1CN2c3c(cccc3[C@@H]3CN(CCCOc4ccc(F)cc4)CC[C@@H]32)N1 [Example 1, (6bR,10aS)-8-(3-(4-fluorophenoxy)propyl)-6b,7,8,9,10,10a-hexahydro-1H-pyrido[3′,4′:4,5]pyrrolo[1,2,3-de]quinoxalin-2(3H)-one], the “Mean MV” value (Crl:CD rats; [1]) was 112 mL, the “Mean TV” value (Crl:CD rats; [1]) was 1.12 mL and the “Mean MV” value (Crl:CD rats; [2]) was 161 mL. For the same compound, the “Mean TV” value (Crl:CD rats; [2]) was 1.27 mL, the “Mean MV” value (Crl:CD rats; [3]) was 163 mL and the “Mean TV” value (Crl:CD rats; [3]) was 1.48 mL. The “Mean MV” value (Crl:CD rats; [4]) was 210 mL and the “Mean TV” value (Crl:CD rats; [4]) was 1.73 mL.

N#Cc1ccc(OCCCN2CC[C@H]3[C@@H](C2)c2cccc4c2N3CC(=O)N4)cc1 showed a maximum inhibition (D1) of 0% @ and a maximum inhibition (5-HT2A) of 0% @.

Compound O=C1CN2c3c(cccc3[C@@H]3CN(CCCOc4cccc5cccnc45)CC[C@@H]32)N1 has a maximum inhibition (D1) of 0% @ and a maximum inhibition (5-HT2A) of 0% @.

O=C1CN2c3c(cccc3[C@@H]3CN(CCCOc4ccc(Cl)cc4)CC[C@@H]32)N1 was tested, and the maximum inhibition (D1) was 0% @.

With O=C1CN2c3c(cccc3[C@@H]3CN(CCCOc4ccc(F)c(O)c4)CC[C@@H]32)N1 the maximum inhibition (D2) was 0% @.
